For experiment [1], the target named is recombinant human EGFR exon 19 deletion/C797S double mutant protein (Homo sapiens (Human), UniProt P00533, C797S/DEL746-750). In words: Biological Activity Assay C: biochemical assay against EGFR exon 19 deletion/C797S protein (EGFR d19/CS). The protocol: (§1) In Row A of a 384-well polypropylene plate, was added 48 μL of DMSO. In wells A1 and A24, were added 12 μL of DMSO. […] To a well in Row A were added 12 μL of each 10 mM test compound stock (100% DMSO). […] The final intermediate dilution plate contained 4×16-point compound serial dilutions in assay buffer. The DMSO concentration was 10%. The intermediate compound dilution plate was transferred to the Bravo and the “5 uL dispense into ARP.pro” protocol was run. To the black low volume assay ready plates, were added 5 μL of 40 uM Phosphosens peptide sensor/4 mM ATP working solution to each well. […] To column 24, was added 10 μL of assay buffer. The final DMSO concentration was 2.5%. […] The plates were sealed with the TopSeal-A Plus plate seals. […] Set for 90 cycles with 120 second interval. […] The slope of each curve was constructed using Dotmatics in each well, and each IC50s was calculated using a 4-parameter fit model.

By UniProt entry, the sequences of proteins in these tests, tags left out. Chains listed by the source or under a name are the forms on record and can include a tag or linker. Residues count along the entry.
UniProt P00533, other isoform, or with tags, fused parts or gaps C797S/del 1-668/del 746-750 limits assumed: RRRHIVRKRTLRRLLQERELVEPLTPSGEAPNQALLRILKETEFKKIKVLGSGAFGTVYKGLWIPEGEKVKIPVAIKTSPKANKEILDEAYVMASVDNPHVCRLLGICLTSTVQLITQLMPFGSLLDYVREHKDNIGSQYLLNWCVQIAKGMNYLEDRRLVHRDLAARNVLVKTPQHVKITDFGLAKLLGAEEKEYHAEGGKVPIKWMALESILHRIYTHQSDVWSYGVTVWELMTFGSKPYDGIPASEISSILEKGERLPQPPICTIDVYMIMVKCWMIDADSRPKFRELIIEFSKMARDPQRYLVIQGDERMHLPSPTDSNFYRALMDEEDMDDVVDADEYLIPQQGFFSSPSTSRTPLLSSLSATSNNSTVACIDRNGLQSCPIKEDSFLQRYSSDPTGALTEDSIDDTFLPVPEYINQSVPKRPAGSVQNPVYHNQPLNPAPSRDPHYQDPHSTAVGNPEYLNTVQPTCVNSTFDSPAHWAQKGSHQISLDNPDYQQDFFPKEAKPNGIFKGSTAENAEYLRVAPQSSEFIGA
UniProt P00533, 25-1210 C797S/L858R: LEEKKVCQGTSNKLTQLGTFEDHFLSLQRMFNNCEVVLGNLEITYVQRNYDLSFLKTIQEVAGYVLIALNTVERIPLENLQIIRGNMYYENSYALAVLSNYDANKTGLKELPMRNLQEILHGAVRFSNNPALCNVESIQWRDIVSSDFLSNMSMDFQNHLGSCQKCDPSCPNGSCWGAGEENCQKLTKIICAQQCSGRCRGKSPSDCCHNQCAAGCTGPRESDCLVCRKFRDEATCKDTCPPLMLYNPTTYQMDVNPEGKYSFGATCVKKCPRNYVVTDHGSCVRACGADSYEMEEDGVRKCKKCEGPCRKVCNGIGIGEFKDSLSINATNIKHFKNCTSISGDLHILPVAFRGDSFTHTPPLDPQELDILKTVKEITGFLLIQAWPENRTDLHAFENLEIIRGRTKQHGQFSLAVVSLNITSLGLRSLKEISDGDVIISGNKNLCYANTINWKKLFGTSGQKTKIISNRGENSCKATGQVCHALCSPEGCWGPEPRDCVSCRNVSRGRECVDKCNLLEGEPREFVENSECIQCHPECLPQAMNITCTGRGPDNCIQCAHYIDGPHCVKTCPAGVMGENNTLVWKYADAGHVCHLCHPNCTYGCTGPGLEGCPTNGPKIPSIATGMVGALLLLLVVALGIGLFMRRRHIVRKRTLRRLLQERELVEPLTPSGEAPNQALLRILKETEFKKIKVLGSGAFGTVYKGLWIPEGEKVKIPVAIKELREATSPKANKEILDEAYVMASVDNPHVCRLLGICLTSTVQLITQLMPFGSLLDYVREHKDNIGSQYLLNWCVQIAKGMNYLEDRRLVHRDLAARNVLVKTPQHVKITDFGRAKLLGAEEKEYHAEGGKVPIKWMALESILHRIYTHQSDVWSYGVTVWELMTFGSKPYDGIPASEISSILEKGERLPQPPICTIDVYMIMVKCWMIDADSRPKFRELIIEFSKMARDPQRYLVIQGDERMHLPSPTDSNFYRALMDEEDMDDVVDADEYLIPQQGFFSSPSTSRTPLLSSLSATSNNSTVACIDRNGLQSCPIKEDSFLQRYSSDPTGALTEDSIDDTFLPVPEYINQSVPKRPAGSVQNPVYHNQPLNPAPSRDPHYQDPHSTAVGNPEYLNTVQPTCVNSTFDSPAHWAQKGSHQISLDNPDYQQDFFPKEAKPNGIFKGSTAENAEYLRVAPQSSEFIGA

The target in experiment [2] is recombinant human EGFR L858R/C797S double mutant protein (Homo sapiens (Human), UniProt P00533, C797S/L858R). In words: Biological Activity Assay B: biochemical assay against EGFR L858R/C797S protein (EGFR LR/CS). The protocol: as §1

Each structure is given as a SMILES string.

Among the data in US20250034159A1, “INHIBITORS OF EPIDERMAL GROWTH FACTOR RECEPTOR” (ORIC Pharmaceuticals, Inc., priority 2021, published 2025) are IC50 values, retold here.

On to `Cn1cc(-c2ncnc3oc(-c4ccccc4)cc23)c(-c2ccc(F)cc2)n1` [Example 63, 4-[3-(4-Fluorophenyl)-1-methyl-1H-pyrazol-4-yl]-6-phenylfuro[2,3-d]pyrimidine], for which the IC50 was 459 pM in experiment [1] and 474 pM in experiment [2].

On to `[2H]C([2H])([2H])n1cc(-c2ncnc3oc(-c4ccccc4)cc23)c(-c2ccc(F)cc2)n1` [Example 48, 4-[3-(4-Fluorophenyl)-1-(2H3)methyl-1H-pyrazol-4-yl]-6-phenylfuro[2,3-d]pyrimidine], for which the half-inhibitory concentration (IC50) in experiment [1] was 374 pM; in experiment [2], 400 pM.
